PglD inh: PglD (C. jejuni) enzyme inhibition. inhibition, % at 12.5 µM. hit rate 0.098% among 360,000. AID 602405. purified PglD enzyme, DTNB colorimetric CoA detection; in the data active means inhibition above about 16%, passing the limit was not always enough
esBAF inh: blocks esBAF chromatin remodeling in mouse ES cells. hit rate 2% among 350,000. reporter increase, % at 12.5 µM. AID 602393. Bmi1-luciferase knock-in reporter, 24 h; 100% = twice the neutral-well signal; in the data active means activation above about 40%;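 further: a rise in the Bmi1 reporter signal indicates esBAF inhibition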
PGC1a acetyl inh: PGC1a acetylation modulation, inhibitor mode. AID 651687. inhibition, % at 15.6 µM. hit rate 0.17% among 350,000. U2OS PGC1a acetylation, AlphaScreen anti-acetyl-lysine; with virally co-expressed GCN5 acetyltransferase;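 active means every replicate shows inhibition of at least 40%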
C2C12 statin: suppressors of simvastatin-induced myotoxicity in C2C12 myotubes. ATP luminescence, 48 h; scaled: DMSO 0, geranylgeraniol control 100. rescue of ATP level, % at 7.49 µM. hit rate 0.78% among 330,000;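 active means mean ATP rescue above about 67%, or every replicate alone reaching that limit, limit read from the data, passing the limit was not always enough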;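 further: myotubes were challenged with 10 µM simvastatin during compound exposure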
E-sel inducer: induces E-selectin expression in human endothelial cells; hit rate 0.37% among 260,000; HUVEC E-selectin immunofluorescence imaging; normalized: neutral wells 0, TNF-alpha wells 100; AID 686992; activation, % at 7.58 µM; P16581;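 active means mean E-selectin-positive cell signal at least 10% of the positive control, reached in at least 60% of replicates, without over 20% cell loss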
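Material: HUVEC primary endothelial cells; Amount: 3,000 cells per well; Dosing: single concentration; Medium: EGM-2 growth medium on 0.1% gelatin-coated wells; Read-out basis: percent E-selectin-positive cells; Signal: immunofluorescence imaging; Control set: TNF-alpha, DMSO.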
UUG fidelity: modulators of yeast start codon fidelity, primary screen, whole organism, S. cerevisiae, single point, plate reader | AID 602363, 2012 | actives 0.13% (n = 350,000) | activity score, % at 18.7 µM | S. cerevisiae UUG-firefly luciferase reporter, luminescence/redox ratio;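 active means replicate mean at a twofold rise or more, about +100% in these data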;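 further: firefly luciferase made from a UUG start codon reports start codon fidelity; reporter light over untreated wells divided by growth signal over untreated wells; some hits fall short of that in this replicate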
Each line names hits and unclear results; the compound was inactive in the other large screens. Only some compounds are listed: those with a hit (about 2.8% of all), similar ones and a draw of the others.

CCN(C(=O)COC(=O)/C=C/c1ccco1)C1CCCCC1	E-sel inducer 110.6
O=C(CCn1c(SCC(=O)NCc2ccco2)nc2ccccc2c1=O)NCCc1ccccc1	C2C12 statin 102.3 (no result: E-sel inducer)
COCCNc1nc2sc3c(c2c(=O)n1Cc1ccco1)CCCCC3	esBAF inh 75.1
O=c1c2c3c(sc2nc(NCCO)n1Cc1ccco1)CCCCC3	esBAF inh 79.6 (no result: E-sel inducer)
CN(C)CCNc1nc2sc3c(c2c(=O)n1Cc1ccccc1)CCCCC3	none (no result: PGC1a acetyl inh)
COCCCn1c(SCC(=O)NCc2ccco2)nc2sc3c(c2c1=O)CCC3	C2C12 statin 132.3
O=C(CSc1nc2sc3c(c2c(=O)n1-c1ccccc1)CCCC3)NCc1ccco1	none
C[C@@H]1CN([C@@H](C)CO)C(=O)c2cc(NC(=O)c3ccccc3)ccc2O[C@@H](C)CCCCO[C@H]1CN(C)C(=O)NC1CCCCC1	none (no result: C2C12 statin)
Oc1ccc(/C=N/Nc2cccc3cccnc23)c(O)c1	esBAF inh 78.8 (no result: E-sel inducer)
Cc1ccc(/C=N/Nc2cccc3cccnc23)c(O)c1	none (no result: PglD inh, E-sel inducer)
C[C@@H]1CN([C@@H](C)CO)C(=O)Cc2cc(NC(=O)Cc3cn(C)c4ccccc34)ccc2O[C@@H]1CN(C)Cc1ccc(Cl)c(Cl)c1	none
C[C@@H]1CN([C@@H](C)CO)C(=O)Cc2cc(NC(=O)Cc3cn(C)c4ccccc34)ccc2O[C@@H]1CN(C)Cc1ccc2c(c1)OCO2	none (no result: E-sel inducer)
C[C@H]1CN([C@@H](C)CO)C(=O)Cc2cc(NC(=O)Cc3cn(C)c4ccccc34)ccc2O[C@@H]1CN(C)Cc1ccc2c(c1)OCO2	none (no result: E-sel inducer)
C[C@@H]1CN([C@H](C)CO)C(=O)Cc2cc(NC(=O)Cc3cn(C)c4ccccc34)ccc2O[C@@H]1CN(C)Cc1ccc2c(c1)OCO2	C2C12 statin 85.8 (no result: E-sel inducer)
C[C@@H]1CN([C@H](C)CO)C(=O)Cc2cc(NC(=O)Cc3cn(C)c4ccccc34)ccc2O[C@H]1CN(C)Cc1ccc(Cl)c(Cl)c1	C2C12 statin 94.9
C[C@@H]1CN([C@@H](C)CO)C(=O)Cc2cc(NC(=O)Cc3cn(C)c4ccccc34)ccc2O[C@H]1CN(C)Cc1ccc(Cl)c(Cl)c1	C2C12 statin 71.8
Cn1c(-c2sc3cc(C(F)(F)F)cnc3c2-c2cccnc2)n[nH]c1=S	C2C12 statin 139.2 (no result: E-sel inducer)
Oc1ccc(-c2cn3c(n2)SCC3)cc1	C2C12 statin 97.3 (no result: E-sel inducer)
O=C(Nc1cccc(-c2cn3c(n2)SCC3)c1)c1ccc2ccccc2n1	esBAF inh 60.4 (no result: E-sel inducer)
Clc1ccc(-c2cn3c(n2)SCC3)cc1	esBAF inh 56.1 (no result: PglD inh, E-sel inducer, UUG fidelity)
Brc1ccc(-c2cn3c(n2)SCC3)cc1	esBAF inh 57.6 (no result: PGC1a acetyl inh, E-sel inducer)
CO[C@H]1CN(C)C(=O)c2cc(NC(=O)Nc3ccc(C(F)(F)F)cc3)ccc2OC[C@H](C)NC[C@@H]1C	none (no result: UUG fidelity)
CC(C)COC(=O)c1ccccc1N1C(=O)C2C3CCC(C3)C2C1=O (stereo not drawn)	none (no result: PglD inh, esBAF inh, PGC1a acetyl inh, C2C12 statin, UUG fidelity)
CCCCOC(=O)c1ccccc1N1C(=O)C2C3CCC(C3)C2C1=O (stereo not drawn)	C2C12 statin 82.5
CCN(CC)c1ccc2cc(-c3nc4ccccc4[nH]3)c(=O)oc2c1	none (no result: E-sel inducer)
CCN(CC)c1ccc2cc(-c3nnc(-c4ccccc4)o3)c(=O)oc2c1	esBAF inh 46.1 (no result: E-sel inducer)
CCN(CC)c1ccc2cc(C(=O)c3cccs3)c(=O)oc2c1	esBAF inh 72.3
OCC1OC(n2ccc3c(NO)ncnc32)C(O)C1O (stereo not drawn)	none (no result: PglD inh, esBAF inh, PGC1a acetyl inh, C2C12 statin, UUG fidelity)
CN(C)c1ncnc2c1ccn2C1OC(CO)C(O)C1O (stereo not drawn)	PGC1a acetyl inh 52.5
C[C@@H]1CCCCO[C@H](CN(C)C(=O)CCC(F)(F)F)[C@@H](C)CN([C@H](C)CO)C(=O)c2cc(NS(=O)(=O)c3ccc(F)cc3)ccc2O1	none (no result: C2C12 statin, E-sel inducer)
CNC(=O)CSc1nnc(-c2ccco2)n1-c1ccccc1	none (no result: E-sel inducer)
O=C(CSc1nnc(-c2ccco2)n1-c1ccccc1)Nc1c(Cl)cc(Cl)cc1C(=O)O	PGC1a acetyl inh 52.4
O=C(C1CC1)N1CCc2cc(S(=O)(=O)N3CCN(c4ccccc4)CC3)ccc21	none
O=C(C1CCC1)N1CCCc2cc(S(=O)(=O)N3CCN(c4ccccc4)CC3)ccc21	C2C12 statin 149.0 (no result: E-sel inducer)
CNC[C@@H]1Oc2cc(C#CCN(C)C)ccc2S(=O)(=O)N([C@@H](C)CO)C[C@@H]1C	none
COc1ccc(S(=O)(=O)Nc2cccc3c2O[C@H](CN(C)C(=O)Nc2c(C)noc2C)[C@@H](C)CN([C@@H](C)CO)C3=O)cc1	E-sel inducer 31.8
COc1ccc(S(=O)(=O)Nc2cccc3c2O[C@H](CN(C)C(=O)Nc2c(C)noc2C)[C@H](C)CN([C@H](C)CO)C3=O)cc1	E-sel inducer 96.0
O=C(C1CCCC1)N1CCCCN2[C@H](C1)[C@H](c1ccc(C#CC3(O)CCCC3)cc1)[C@@H]2CO	none (no result: esBAF inh, C2C12 statin, E-sel inducer)
CCCNC(=O)N1C[C@@H](O)COC[C@@H]2O[C@@H](CC(=O)NCc3ccncn3)CC[C@H]21	none (no result: UUG fidelity)
C[C@@H]1CN([C@H](C)CO)C(=O)c2cc(NC(=O)Nc3ccccc3)ccc2O[C@@H]1CN(C)C(=O)NC1CCCCC1	none
CCCCn1nnc(NC(=O)c2cc3ccccc3o2)n1	esBAF inh 59.1 (no result: E-sel inducer)
CCCn1nnc(NC(=O)c2cc3ccccc3o2)n1	esBAF inh 50.2 (no result: E-sel inducer)
COc1ccc(S(=O)(=O)Nc2ccc3c(c2)C(=O)N([C@H](C)CO)C[C@H](C)[C@H](CN(C)Cc2ccc(C(=O)O)cc2)OCCCC[C@@H](C)O3)cc1	none (no result: C2C12 statin)
CC(C)CC#Cc1cnc2c(c1)C(=O)N([C@H](C)CO)C[C@H](C)[C@@H](CN(C)C(=O)c1ccc3c(c1)OCO3)O2	none
CC(C)CC#Cc1cnc2c(c1)C(=O)N([C@H](C)CO)C[C@@H](C)[C@H](CN(C)C(=O)c1ccc3c(c1)OCO3)O2	E-sel inducer 74.5
CC(C)CC#Cc1cnc2c(c1)C(=O)N([C@H](C)CO)C[C@@H](C)[C@H](CN(C)C(=O)Cc1ccccc1)O2	C2C12 statin 100.9
CC(C)CC#Cc1cnc2c(c1)C(=O)N([C@@H](C)CO)C[C@@H](C)[C@H](CN(C)C(=O)c1ccc3c(c1)OCO3)O2	C2C12 statin 78.4
CC(C)CC#Cc1cnc2c(c1)C(=O)N([C@@H](C)CO)C[C@H](C)[C@@H](CN(C)C(=O)Cc1ccccc1)O2	none
C[C@H](CO)N1C[C@H](C)[C@H](CN(C)C(=O)C2CC2)Oc2ncc(C3=CCCC3)cc2C1=O	none (no result: PglD inh, esBAF inh, UUG fidelity)
CC1Cc2nc(SCC(N)=O)n(C)c(=O)c2S1 (stereo not drawn)	C2C12 statin 135.2
COC(=O)c1sccc1N/N=C/c1ccc(OC)c(OC)c1OC	esBAF inh 52.5 (no result: PGC1a acetyl inh)
CCOc1ccc(NC(=S)Nc2ccc(OCc3ccccc3)cc2)cc1	none (no result: esBAF inh, C2C12 statin)
Oc1ccc(N=Cc2ccc(OCc3ccccc3)cc2)cc1	esBAF inh 48.2
CNC(=S)Nc1ccc(OCc2ccccc2)cc1	esBAF inh 40.9 (no result: PGC1a acetyl inh)

Screening data as filed in PubChem.
